## Yeast mating assay B: variants of the scFv Ab-14

Antigen: PDVDLGDISGINAS, a 14-residue peptide of the SARS-CoV-2 spike HR2 region.

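The starting antibody came from a phage panning campaign against this peptide. Designed CDR sequences, proposed from the first random library and measured here. Their group label is 14H_En_HC (En: ensemble of fine-tuned language models; HC: hill climbing; a sequence that several methods proposed may carry one label only). In AlphaSeq, yeast of one mating type display the scFv and yeast of the other type display the target. Mating (16 h, 30 °C) was followed by selection of diploids and sequencing of their barcodes. Read counts were normalised to the haploid input and turned into Kd by a linear fit to BCL2-family pairs of known affinity, for each replicate. There are six technical replicates.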

Ab-14 is the parent antibody, in scFv form: VH, then three GGGGS repeats, then VL. The light chain is unchanged in all variants.
VH: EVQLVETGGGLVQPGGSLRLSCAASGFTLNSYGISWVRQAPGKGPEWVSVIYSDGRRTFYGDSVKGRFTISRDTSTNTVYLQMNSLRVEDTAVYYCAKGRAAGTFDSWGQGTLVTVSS
VL: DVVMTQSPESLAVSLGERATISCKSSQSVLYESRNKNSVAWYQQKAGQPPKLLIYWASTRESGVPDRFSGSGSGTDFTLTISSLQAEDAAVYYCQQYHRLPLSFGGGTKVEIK

Each variant's VH is given in full.
Affinities are written as log10 Kd with Kd in nM; a lower number is a better binder.
A mean of the replicates is given; it leaves out those without a signal.
"nd" means that the variant was in the library but no mating with the target was seen in that replicate; the authors take this as a sign of poor binding, and no number exists.

| VH | replicates, log10 nM | mean log10 Kd (nM) | control signals |
|---|---|---|---|
| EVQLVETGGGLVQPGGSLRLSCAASGFDLNEYGISWVRQAPGKGPEWVSVIYADGRRTFYADSVKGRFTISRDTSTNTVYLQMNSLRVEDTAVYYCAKGQAAGTFDQWGQGTLVTVSS | -0.22 -0.27 -0.47 -0.40 -0.10 -0.12 | -0.26 | 0/18 |
| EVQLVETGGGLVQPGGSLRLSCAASGFDLNEYGISWVRQAPGKGPEWVSVIYADGRRTAYIDSVKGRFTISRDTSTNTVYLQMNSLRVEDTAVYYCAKGEAAGTFDMWGQGTLVTVSS | 0.34 -0.31 -0.68 -0.70 0.01 -0.02 | -0.23 | 0/18 |
| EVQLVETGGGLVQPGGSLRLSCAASGFDLNEYGISWVRQAPGKGPEWVSVIYADGRRTAYKDSVKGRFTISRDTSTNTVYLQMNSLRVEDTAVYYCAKGQVAGTFDSWGQGTLVTVSS | -0.62 -0.05 -0.93 -0.75 -0.24 -0.69 | -0.55 | 0/18 |
| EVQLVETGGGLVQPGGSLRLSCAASGFDLNEYGISWVRQAPGKGPEWVSVIYADGRRTAYIDSVKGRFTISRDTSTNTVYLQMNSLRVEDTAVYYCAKGQAAGTFDVWGQGTLVTVSS | -0.04 0.14 -0.23 -0.21 -0.14 0.07 | -0.07 | 1/18 (1.61) |
| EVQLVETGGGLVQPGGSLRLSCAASGFDLNEYGISWVRQAPGKGPEWVSVIYADGQRTFYSDSVKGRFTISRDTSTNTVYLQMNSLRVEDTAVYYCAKGEIAGTFDQWGQGTLVTVSS | 0.14 -0.35 -0.42 -0.39 -0.52 0.15 | -0.23 | 0/18 |
| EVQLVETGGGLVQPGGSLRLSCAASGFDLESYGISWVRQAPGKGPEWVSVIYADGKRTAYADSVKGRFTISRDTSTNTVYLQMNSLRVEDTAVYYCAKGNVAGTFDSWGQGTLVTVSS | -1.50 -2.08 -1.03 -0.77 -1.04 -1.80 | -1.37 | 0/18 |
| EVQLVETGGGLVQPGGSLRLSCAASGFDLNEYGISWVRQAPGKGPEWVSVIYADGRRTAYIDSVKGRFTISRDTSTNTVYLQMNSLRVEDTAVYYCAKGNTAGTFDQWGQGTLVTVSS | -0.80 -0.14 -0.42 -1.03 -0.79 -0.54 | -0.62 | 1/18 (0.70) |
| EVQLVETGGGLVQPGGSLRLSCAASGFDLNEYGISWVRQAPGKGPEWVSVIYADGKRTFYADSVKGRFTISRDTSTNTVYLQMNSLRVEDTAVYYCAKGQVAGTFDLWGQGTLVTVSS | 0.50 1.22 0.60 0.72 -0.30 0.43 | 0.53 | 2/18 (1.58) |
| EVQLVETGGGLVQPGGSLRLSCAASGFDLNEYGISWVRQAPGKGPEWVSVIYADGRRKFYADNVKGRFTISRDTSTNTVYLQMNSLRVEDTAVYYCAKGENAGTFNVWGQGTLVTVSS | -0.48 -0.33 -0.55 -0.17 -0.10 -0.62 | -0.37 | 0/18 |
| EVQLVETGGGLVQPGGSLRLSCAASGFDLNEYGISWVRQAPGKGPEWVSVIYADGRRTFYADSVKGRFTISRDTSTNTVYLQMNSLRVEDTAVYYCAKGNNAGTFFSWGQGTLVTVSS | nd 1.86 0.58 1.75 1.88 1.74 | 1.56 | 0/18 |
| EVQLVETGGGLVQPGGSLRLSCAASGFNLNEYGISWVRQAPGKGPEWVSVIYADGMRTFYTDDVKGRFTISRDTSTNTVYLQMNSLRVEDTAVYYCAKGEFAGTFDLWGQGTLVTVSS | 0.19 -0.03 0.21 -0.07 -0.40 0.02 | -0.01 | 0/18 |
| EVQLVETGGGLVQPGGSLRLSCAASGFDLNEYGISWVRQAPGKGPEWVSVIYADGRRTFYSDSVKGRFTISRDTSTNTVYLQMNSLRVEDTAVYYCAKGETAGTFVSWGQGTLVTVSS | 0.06 -0.09 -0.37 -0.52 -0.69 -0.38 | -0.33 | 0/18 |
| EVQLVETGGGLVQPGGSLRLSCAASGFDLNEYGISWVRQAPGKGPEWVSVIYADGRRTFYSDSVKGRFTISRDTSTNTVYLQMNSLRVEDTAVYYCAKGENAGTFDSWGQGTLVTVSS | -0.31 -0.22 -0.59 -0.80 -0.75 -0.41 | -0.51 | 0/18 |
| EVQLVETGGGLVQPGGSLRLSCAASGFDLNEYGISWVRQAPGKGPEWVSVIYADGRRTAYIDSVKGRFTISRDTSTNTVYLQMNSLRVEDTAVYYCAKGNIAGTFDVWGQGTLVTVSS | -0.73 -0.82 -0.87 -0.65 -0.85 -0.72 | -0.78 | 1/18 (2.48) |
| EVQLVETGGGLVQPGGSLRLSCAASGFDLDEYGISWVRQAPGKGPEWVSVIYADGRRTFYADSVKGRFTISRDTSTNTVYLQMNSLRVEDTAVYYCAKGETAGTFDWWGQGTLVTVSS | -0.06 -0.72 -0.79 -0.58 -0.67 -0.21 | -0.51 | 1/18 (1.74) |

As a blank, each scFv also met three strains without target: over all heavy chain designs, 1% of these pairings were detected, typically at 2.08 and seldom below 0.84. For each scFv, signals with the empty controls are counted beside the result, with their mean in brackets.
The authors' rule: three or more of the six replicates give a measured affinity, fewer mean a poor binder.
A sequence measured in both rounds can read differently, since the two assays cover different ranges.

From the AlphaSeq antibody data of Li et al. 2023 (doi:10.1038/s41467-023-39022-2), copy in the FLAb collection.